In PubChem BioAssay AID1527 (The Scripps Research Institute Molecular Screening Center, 2009):
The list shows a part of the results, in another mix than the full data. Some results for these compounds are left out of this collection, so the calls shown say nothing about other tests. The source made the active and inactive calls.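 The calls were made as follows: active = inhibition above the mean of all tested compounds plus 3 SD, cutoff set per screening run (cut at about 7.5% in these data); inactive = the rest.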

Each compound was assayed on VIM-2 metallo-beta-lactamase (Pseudomonas aeruginosa) (assay: VIM-2 metallo-beta-lactamase inhibitors, primary screen, biochemical, epi-absorbance readout, Pseudomonas aeruginosa enzyme (AID 1527;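 also: red hydrolysis product quenches plate fluorescence so inhibitors raise well fluorescence; 0% = enzyme with DMSO and 100% = DMSO without enzyme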)). Details: purified VIM-2, nitrocefin hydrolysis, epi-absorbance fluorescence; at 5.6 µM; stronger effect = higher value.
With `COc1cccc(C(=O)NCC2(N3CCCCC3)CCCCC2)c1` the inhibition was inactive: -3.1%.
For `COc1ccc(Cl)cc1C(=O)NCC1(N(C)C)CCCCC1`, the inhibition was inactive: 1.27%.
`O=C(NCC1(N2CCCCC2)CCCCC1)c1cccc(Cl)c1` was tested, and the inhibition was inactive: -2%.
With `CN(C)C1(CNC(=O)c2ccc(Br)cc2)CCCCC1` the inhibition was inactive: -3.22%.
For `COc1cc(C(=O)NCC2(N(C)C)CCCCC2)c([N+](=O)[O-])cc1OC`, the inhibition was inactive: 0.69%.
In the case of `COc1ccc(Br)c(C(=O)NCC2(N3CCCCC3)CCCCC2)c1`, the inhibition is reported as inactive: 0.58%.
In the case of `CN(C)c1cccc(C(=O)NCC2(N(C)C)CCCCC2)c1`, the inhibition is reported as inactive: -1.16%.
In the case of `CC(C)Oc1ccc(C(=O)NCC2(N(C)C)CCCCC2)cc1`, the inhibition is reported as inactive: 1.09%.
With `O=C(OC1CN2CCC1CC2)C(CO)(c1ccccc1)c1ccccc1` (centres undefined) the inhibition was inactive: -3.44%.
For `CC(C)N1C(=O)CC2(CCN(CCOC(=O)C(O)(c3ccccc3)c3ccccc3)CC2)C1=O`, the inhibition was inactive: 0.66%.
In the case of `CCN(CC)CC(C)C(C)OC(=O)C(O)(c1ccccc1)c1ccccc1` (centres undefined), the inhibition is reported as inactive: -2.41%.
For `COc1cc(SC)ccc1C(=O)NCC1(N(C)C)CCCCC1`, the inhibition was inactive: -1.25%.
In the case of `Cc1ccc(C(=O)NCC2(N3CCCCC3)CCCCC2)cc1`, the inhibition is reported as inactive: -0.39%.
With `O=C(NCC1(N2CCCCC2)CCCCC1)c1cc([N+](=O)[O-])ccc1Cl` the inhibition was inactive: 0.49%.
`CN1[C@@H]2CC[C@H]1CC(OC(=O)C(O)(c1ccccc1)c1ccccc1)C2` (some centres undefined) was tested, and the inhibition was inactive: -3.93%.
With `C=CCN1CCN(CCOC(=O)C(O)(c2ccccc2)c2ccccc2)CC1` the inhibition was inactive: -4.79%.
In the case of `O=C(NCC1(N2CCCCC2)CCCCC1)c1cc(F)c(F)cc1Cl`, the inhibition is reported as inactive: -2.81%.
For `Cc1cc(C(=O)NCC2(N3CCCCC3)CCCCC2)ccc1[N+](=O)[O-]`, the inhibition was inactive: -3.59%.
With `CCN1CCCC(OC(=O)C2(O)c3ccccc3C=Cc3ccccc32)C1` (centres undefined) the inhibition was inactive: -0.06%.
For `O=C(NCC1(N2CCCCC2)CCCCC1)c1cccc(Br)c1`, the inhibition was inactive: -0.31%.
For `COc1ccc(C(=O)NCC2(N(C)C)CCCCC2)cc1`, the inhibition was inactive: 0.69%.
With `Cc1ccccc1C(=O)NCC1(N2CCCCC2)CCCCC1` the inhibition was inactive: -1.6%.
For `CN(C)C1CCCC1OC(=O)C(O)(c1ccccc1)c1ccccc1` (centres undefined), the inhibition was inactive: 0.16%.
For `CN(C)c1ccc(C(=O)NCC2(N(C)C)CCCCC2)cc1`, the inhibition was inactive: -2.32%.
